The target of one assay is Bcl-XL/Bad interaction (Homo sapiens, UniProt Q07817). In words: GFP-Bad mitochondrial localization by fluorescence microscopy in COS-7 cells. The following applies: COS-7 cells co-expressing GFP-Bad and HA-Bcl-XL, 100 μM, 4 h; tested form: diammonium salt (as drawn, CO2NH4). The procedure: FIG. 3 is a series of images illustrating BH3-M6 inhibits the Bcl-XL interaction with Bad in intact cells. BH3-M6 inhibits Bcl-XL-induced GFP-Bad mitochondrial localization. COS-7 cells were grown in DMEM supplemented with 10% FBS and antibiotics, transfected with the indicated constructs, treated and analyzed as described in EXPERIMENTAL PROCEDURES. (A) cells expressing pEGFP-Bad and pcDNA3-HA-Bcl-XL. (B) quantification of the fluorescence data (gray: diffuse, black: punctate cells). At least 85 transfected cells per sample were counted in three different fields of view.
COS-7 cells were seeded onto glass cover slips in 24-well plates and transfected with 1 μg pEGFP-Bad expression vector alone or co-transfected with 0.5 μg pEGFP-Bad and 0.5 μg pcDNA3-HA-Bcl-XL sing TransFectin™ reagent. After 18 h, cells were treated with DMSO, 100 μM of BH3-M6, or TPC for 4 h in the presence of a caspase inhibitor (50 μM z-VAD-fmk) to prevent apoptosis. […] Following another wash with cold PBS, the cover slips were mounted with DAPI-containing mount media (Vector Laboratories, Burlingame, Calif.) and analyzed by fluorescence microscopy.
To determine whether BH3-M6 is active in intact cells, the inventors used two methods: fluorescence microscopy for cells exogenously expressing Bcl-XL and GFP-Bad, as well as co-immunoprecipitation of endogenous proteins.

Amino acid sequences for entries named in this document (tags omitted).
UniProt Q07817, whole entry: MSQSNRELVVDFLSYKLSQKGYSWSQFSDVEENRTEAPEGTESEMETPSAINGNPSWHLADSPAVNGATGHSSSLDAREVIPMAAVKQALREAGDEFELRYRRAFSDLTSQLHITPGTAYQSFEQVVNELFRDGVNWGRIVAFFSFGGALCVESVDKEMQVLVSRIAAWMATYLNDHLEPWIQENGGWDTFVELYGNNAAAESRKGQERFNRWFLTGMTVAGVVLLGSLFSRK

Another assay deals with DoHH2 cells. Description: Caspase-3/-7 activity, PARP cleavage and TUNEL apoptosis in DoHH2 cells. To be noted: tested form: diammonium salt (as drawn, CO2NH4). The protocol: FIG. 5 is a series of images illustrating BH3-M6 induces apoptosis in a caspase-dependent manner. (A) BH3-M6 releases cytochrome c from mitochondria. Mitochondria from A549 cells were incubated at 37° C. with 0, 50 μM BH3-M6 or TPC for 60 min. Cytochrome c release was determined as described in Methods. B-D A549 cells were treated with the indicated BH3-M6 concentrations for up to 72 h and then processed for various assays as described in EXPERIMENTAL PROCEDURES. (B) BH3-M6 induces apoptosis after 48 h of exposure to BH3-M6, as shown by phase images of cells (left panel) or DAPI nuclear staining (right panel). The arrows point towards cells in the process of rounding. The images from phase and DAPI are from different experiments. […] (C) BH3-M6 induces PARP cleavage after 48 h of drug treatment. (D) BH3-M6 decreases the viability of A549 cells in a dose-dependent manner as measured by MTT assay after 72 h treatment. Error bars indicate standard deviations of triplicates. (E) upper panel, Activation of caspase-3/-7 by BH3-M6 is blocked by a pan-caspase inhibitor. DoHH2 cells were pretreated with 50 μM Boc-D-FMK, a pan-caspase inhibitor, followed by a co-treatment with 50 μM BH3-M6 for 24 h. Caspase-3/-7 activity was determined as described in EXPERIMENTAL PROCEDURES. Results shown represent one of two independent experiments in triplicate. Error bars indicate standard deviations of triplicates. Middle panel, PARP cleavage was measured by Western blotting. Lower panel, extent of apoptosis was measured by TUNEL assay.
Release of cytochrome c from isolated mitochondria was measured as described by Takahashi et al. (Takahashi, Y., Karbowski, M., Yamaguchi, H., Kazi, A., Wu, J., Sebti, S. M., Youle, R. J., and Wang, H. G. (2005) Mol Cell Biol 25, 9369-9382) Cell-free caspase-3/-7 activity and the extent of PARP cleavage was determined as described previously. […]
Next, the inventors determined whether BH3-M6 requires caspase activity to induce apoptosis. […]

For the compound `CC(C)Cc1cc(-c2ccc(-c3ccc(CCC(=O)O)cc3CC(C)C)cc2Cc2ccccc2)ccc1OCC(=O)O`, at Bcl-XL/Bad interaction, the “inhibition of Bcl-XL-induced Bad mitochondrial localization” value was “about 50%”. In the assay on DoHH2 cells (DoHH2, 50 μM, 24 h), the “induced apoptosis (TUNEL)” value is on record as 7.5 fold and the “induced caspase-3/-7 activity” value is 5 fold. In addition, in the assay with DoHH2 cells (DoHH2, pretreated with 50 μM Boc-D-FMK), the “caspase-3/-7 activity, PARP cleavage and apoptosis in presence of a pan-caspase inhibitor” value is given as “abrogated”.

The record behind these values is US20130295185A1, “COMPOUNDS AND METHODS FOR INDUCING APOPTOSIS IN CANCER CELLS USING A BH3 ALPHA-HELICAL MIMETIC” (H. Lee Moffitt Cancer Center and Research Institute, Inc., priority 2011, published 2013).
